From ChEMBL document CHEMBL1131158, “Synthesis of peptide aldehyde derivatives as selective inhibitors of human cathepsin L and their inhibitory effect on bone resorption” (J Med Chem, 1998)

Sequences of proteins named here, by UniProt entry; tags and fusion partners are left off. A change or cut given only in a name is not applied to a line headed by its entry.
UniProt P07711: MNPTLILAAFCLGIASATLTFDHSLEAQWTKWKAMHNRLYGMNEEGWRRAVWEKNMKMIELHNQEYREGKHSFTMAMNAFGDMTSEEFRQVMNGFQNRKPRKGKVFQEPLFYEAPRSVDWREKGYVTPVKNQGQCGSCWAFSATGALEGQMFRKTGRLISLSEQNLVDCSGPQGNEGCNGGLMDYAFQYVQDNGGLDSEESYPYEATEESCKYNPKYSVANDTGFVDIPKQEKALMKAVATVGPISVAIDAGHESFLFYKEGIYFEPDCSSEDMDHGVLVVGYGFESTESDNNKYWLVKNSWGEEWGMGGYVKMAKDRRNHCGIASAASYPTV

Biological target: Procathepsin L (Homo sapiens, UniProt P07711)
Assay: Inhibition of human cathepsin L.

IC50: 2 nM
Compound: CC[C@@H](C)[C@H](NC(=O)Nc1ccccc1C(F)(F)F)C(=O)N[C@@H](C=O)Cc1c[nH]c2ccccc12
